# Test: Pharmacokinetics in mice in vivo
# Conditions: Balb/c mice, intravenous injection (3 npk)
smiles,measurement,value
C=CC(=O)N1CCC(c2cc(-c3cc4cc(C)cc(OC)c4s3)c3c(N)ncnn23)C1 (stereo not drawn) [Example 1],"Area under the curve, AUC",5.073 µM·h
same,Clearance rate,22.7 mL/min/kg
same,Half-life T1/2,1.09 h

# — patent publication US11236094B2, “Substituted pyrrolo[2,1-f][1,2,4]triazines as FGFR inhibitors” (CSPC ZHONGQI PHARMACEUTICAL TECHNOLOGY (SHIJIAZHUANG) CO., …, priority 2017, dated 2022)
